This assay has as its target T1, AP-2α (TP304603, Origene) (UniProt P05549 1-437).
T1 construct: transcription factor AP-2α, bought recombinant protein, Origene TP304603; also called coated AP-2α; source: bought: Origene (TP304603)
The experiment in a line: ELISA; 200 nM AP-2α coated; increasing concentrations of KCTD1^WT (from 18 nM to 500 nM); detection with an anti-KCTD1 antibody. The settings on record: both partners purified. Background: In an ELISA, binding on a coated surface is turned into a signal by an enzyme label.

Protein sequences, listed by entry. Tags and fused reporters are not part of them. Lines headed by an entry give the natural chain unless they say otherwise; changes in a name come on top.
UniProt P05549: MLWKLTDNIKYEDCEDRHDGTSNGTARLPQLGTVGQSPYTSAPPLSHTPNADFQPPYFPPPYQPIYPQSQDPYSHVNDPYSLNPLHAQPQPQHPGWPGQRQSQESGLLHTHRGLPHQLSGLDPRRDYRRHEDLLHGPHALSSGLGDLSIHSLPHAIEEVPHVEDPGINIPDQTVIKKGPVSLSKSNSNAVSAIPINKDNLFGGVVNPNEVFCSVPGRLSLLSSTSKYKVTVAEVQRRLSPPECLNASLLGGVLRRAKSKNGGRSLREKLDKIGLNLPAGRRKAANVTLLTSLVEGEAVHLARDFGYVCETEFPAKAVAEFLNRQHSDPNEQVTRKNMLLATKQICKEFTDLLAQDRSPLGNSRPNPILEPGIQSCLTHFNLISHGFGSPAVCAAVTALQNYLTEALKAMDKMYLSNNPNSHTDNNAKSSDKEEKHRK

B1: KCTD1^WT (protein used in the ELISA and thioflavin T experiments) (natural protein, UniProt Q719H9 1-257, looked up)
chain: MSRPLITRSPASPLNNQGIPTPAQLTKSNAPVHIDVGGHMYTSSLATLTKYPESRIGRLFDGTEPIVLDSLKQHYFIDRDGQMFRYILNFLRTSKLLIPDDFKDYTLLYEEAKYFQLQPMLLEMERWKQDRETGRFSRPCECLVVRVAPDLGERITLSGDKSLIEEVFPEIGDVMCNSVNAGWNHDSTHVIRFPLNGYCHLNSVQVLERLQQRGFEIVGSCGGGVDSSQFSEYVLRRELRRTPRVPSVIRIKQEPLD
notes: wild-type KCTD1 protein; also called WT KCTD1
Turning to B1, the Kd (usually the free concentration of one partner at which half of the binding sites on the other are occupied at equilibrium, for simple one-to-one binding) was 30 nM.

These data come from publication PMC10866662 (The Journal of Clinical Investigation, 2023).
